Biological target: T1, elastase from human neutrophil (Homo sapiens, UniProt P08246)
T1 construct: from tissue; host or cells: human neutrophil
T1 sequence (P08246 30-247 limits assumed): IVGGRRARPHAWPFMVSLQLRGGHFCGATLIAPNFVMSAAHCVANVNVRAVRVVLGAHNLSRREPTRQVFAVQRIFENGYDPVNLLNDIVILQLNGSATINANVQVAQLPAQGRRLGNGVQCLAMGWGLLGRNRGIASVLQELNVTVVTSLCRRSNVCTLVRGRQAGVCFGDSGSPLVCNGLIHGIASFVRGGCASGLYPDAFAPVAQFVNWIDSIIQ
Assay: Inhibitory effect on elastase (spectrophotometric, Suc-Ala-Pro-Ala-pNA substrate)
Assay type: biochemical
Details: 1 mM Suc-Ala-Pro-Ala-pNA, pH 8.0, 37° C., 30 minutes
Method: The test was carried out by a slight modification of the method of Bieth et al [see Biochem. Med., 75, 350 (1974)] using elastase from human neutrophil. Namely, it is a spectrophotometric method using the synthesized substrate [succinyl-alanyl-prolyl-alanyl-p-nitroanilide (Suc-Ala-Pro-Ala-pNA, produced by the peptide laboratory)] which has comparatively high specificity on neutrophil elastase.
The reaction mixture consisted of 1 mM Suc-Ala-Pro-Ala-pNA (dissolved in N-methylpyrrolidone to the concentration of 100 mM, and then adding 1/100 amount of the solution to the reaction mixture.), 0.1M Tris-HCl buffer solution (pH 8.0), 0.2M sodium chloride aqueous solution, the sample solution of various concentrations and enzyme solution in a final volume of 1.0 ml was then incubated at 37° C. for 30 minutes. The reaction was stopped by the addition of 100 μl of 50% acetic acid into the reaction mixture, and then p-nitroanilide released was measure on absorbance of 405 nm with spectrophotometer. Inhibition percentage and IC50 value, of the test compound were calculated.

SMILES: CC(C)(C)C(=O)Oc1ccc(S(=O)(=O)Nc2ccccc2C(=O)NCC(=O)[O-])cc1.O.O.O.O.[Na+] [the present invention compound, N-[o-(p-pivaloyloxybenzenesulfonylamino)benzoyl]glycine monosodium salt tetrahydrate]
- IC50: 46 nM

Source: patent publication US5359121A, “Glycine derivative monosodium salt tetrahydrate” (Ono Pharmaceutical Co., Ltd., priority 1991, dated 1994)
